Measured affinities in a library of Ab-14 light chain variants

Antigen: PDVDLGDISGINAS, a 14-residue peptide of the SARS-CoV-2 spike HR2 region.

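Phage display of a naive human antibody library on the peptide gave the parent. In library AAYL50, one, two or three CDR residues were substituted; doubles and triples were drawn at random. AlphaSeq pools MATa yeast showing the antibodies with MATalpha yeast showing the peptide. After mating in shaken culture at 30 °C for 16 h, diploids were selected and their barcode pairs sequenced. The ratio of observed to expected reads was calibrated, replicate by replicate, on BCL2-family standards whose Kd was known from biolayer interferometry. There are three technical replicates.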

The variants keep the heavy chain, the linker and the frameworks of Ab-14 (scFv order VH, three GGGGS repeats, VL).
VH: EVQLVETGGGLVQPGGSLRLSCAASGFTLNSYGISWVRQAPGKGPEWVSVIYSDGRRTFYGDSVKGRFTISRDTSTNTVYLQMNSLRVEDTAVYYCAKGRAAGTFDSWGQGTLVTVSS
VL: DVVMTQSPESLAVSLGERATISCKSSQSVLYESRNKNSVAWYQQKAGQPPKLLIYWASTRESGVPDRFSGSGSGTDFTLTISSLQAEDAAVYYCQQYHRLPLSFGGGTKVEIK

Positions count from residue 1 of the parent VL; S28D puts D in place of S.
The read-out is the apparent dissociation constant on a log10 scale (nM): the lower, the stronger.
A pair that was not seen in that replicate is written "nd"; this usually means weak binding, but a binder can also be missed.

changes	log10 Kd, replicates	control signals
S28D+V39R+R60A	nd nd nd	1 of 9 (1.72)
S26N+Q27H+Q96T	2.09 2.23 2.42	2 of 9 (4.33)
S25L+W56C+L102S	-0.09 0.23 -0.07	0 of 9
Y31I+P101C+S103I	nd nd nd	2 of 9 (3.48)
S26V+K36H+Y97P	3.08 2.72 2.74	5 of 9 (4.67)
S26N+S33A+K36N	1.07 1.21 1.20	7 of 9 (5.45)
S25F+R34W+Y97L	1.12 1.50 1.60	1 of 9 (3.64)
N37Y+S58F+L102Q	nd nd nd	1 of 9 (3.45)
L30R+R60F	4.38 4.34 nd	2 of 9 (4.35)
K36Q+Q96R	nd nd nd	4 of 9 (4.89)
L30I+R99I+S103A	1.15 1.44 1.18	4 of 9 (3.45)
Q95F+H98G+L100K	nd nd nd	1 of 9 (3.03)
S25P+A57P+Q96I	nd nd nd	1 of 9 (2.60)
Q96V+H98V+L100G	5.66 3.75 nd	3 of 9 (3.77)
K24S+S25E+Q27T	0.99 1.10 1.18	1 of 9 (4.33)
V39D+S62T+Q95E	nd 3.90 nd	5 of 9 (4.63)
V29G+A40C+P101G	nd nd nd	0 of 9
N35F+S62A+L100C	nd 3.67 nd	0 of 9
S26N+L30G+S62F	1.83 1.34 1.67	0 of 9
V29F+K36C+S58L	4.64 nd 5.41	1 of 9 (3.67)
S28W+W56Y+T59A	1.81 1.91 2.22	0 of 9
V29T+E61S+Q96S	2.13 2.07 2.78	4 of 9 (4.03)
N35L+S38F+Q95T	nd nd nd	4 of 9 (4.53)
K24M+K36I+R99M	1.28 1.53 1.47	1 of 9 (4.73)
R34C+K36F+L100E	nd nd nd	2 of 9 (3.72)
E32C+R60V+L102D	4.37 nd 4.82	2 of 9 (4.34)
Q27N+N37G+V39F	nd nd nd	0 of 9
R34C+W56H+Y97T	2.18 1.98 2.46	6 of 9 (3.90)
W56Y+R60P+Q95A	4.26 3.42 3.47	4 of 9 (4.90)
N35M+N37G+R60F	nd 4.10 nd	0 of 9
S28F+N37D+A57Y	nd nd nd	2 of 9 (4.24)
V29T+N35P+A40R	nd nd nd	0 of 9
S58R+R60P+S62G	3.92 nd nd	0 of 9
Q27A+W56P+H98S	nd nd nd	2 of 9 (3.09)
K24C+Q95I+H98W	nd nd nd	1 of 9 (3.34)
A57W+Y97D+H98T	nd 4.53 nd	2 of 9 (3.87)
Q27D+R34I+P101R	nd 4.05 nd	3 of 9 (3.87)
K36N+Q95T+Q96Y	nd nd nd	0 of 9
Q95C+L100G+L102T	1.61 1.94 1.99	1 of 9 (2.72)
R34V+V39R+T59N	nd 3.37 nd	0 of 9
S26F+A40K+Q96Y	nd nd nd	0 of 9
S33K+A57H	nd nd nd	1 of 9 (2.61)
S38L+V39Y+L100Y	nd nd nd	0 of 9
N35E+K36E+S38M	1.58 2.20 3.16	0 of 9
R34G+N35C+Q95N	0.57 0.92 0.63	0 of 9
S33E+R60T+Q96G	1.55 1.95 3.53	2 of 9 (3.64)
S38A+S58D+T59K	2.03 1.96 1.97	1 of 9 (3.71)
N37Q+S62D+S103C	1.92 1.89 2.02	7 of 9 (4.82)
R34L+N37D+A57Q	nd nd nd	0 of 9
R34I+W56N+R60T	0.15 0.44 0.29	3 of 9 (5.50)

A selection of 5 entries from above:

changes	log10 Kd, replicates	control signals
R34V+V39R+T59N	nd 3.37 nd	0 of 9
S26F+A40K+Q96Y	nd nd nd	0 of 9
Q96V+H98V+L100G	5.66 3.75 nd	3 of 9 (3.77)
K36N+Q95T+Q96Y	nd nd nd	0 of 9
K36Q+Q96R	nd nd nd	4 of 9 (4.89)

Three control strains display no target. For library AAYL50, 18% of the pairings with them gave a signal, with a median of 4.19 and one signal in twenty below 2.99, so weak values seen in few replicates may be background. The control count says in how many pairings with the empty strains this scFv gave a signal, with their mean in brackets.
Parent in this assay: reference entry 0.65, copy in this library 1.68.

Values reported by Engelhart et al. 2022, doi:10.1038/s41597-022-01779-4 (FLAb copy).